Drawing on patent publication US12084462B2, “Spiro bicyclic inhibitors of menin-MLL interaction” (Janssen Pharmaceutica NV, priority 2016, dated 2024), this text covers IC50 for six compounds.

The chains behind the UniProt entries cited, without tags or fusion partners. A line that says so, or that is headed by a name, gives the form on record, which may keep a tag or linker. Residues count along the entry.
UniProt O00255, 1-610 with tags or gaps T541A: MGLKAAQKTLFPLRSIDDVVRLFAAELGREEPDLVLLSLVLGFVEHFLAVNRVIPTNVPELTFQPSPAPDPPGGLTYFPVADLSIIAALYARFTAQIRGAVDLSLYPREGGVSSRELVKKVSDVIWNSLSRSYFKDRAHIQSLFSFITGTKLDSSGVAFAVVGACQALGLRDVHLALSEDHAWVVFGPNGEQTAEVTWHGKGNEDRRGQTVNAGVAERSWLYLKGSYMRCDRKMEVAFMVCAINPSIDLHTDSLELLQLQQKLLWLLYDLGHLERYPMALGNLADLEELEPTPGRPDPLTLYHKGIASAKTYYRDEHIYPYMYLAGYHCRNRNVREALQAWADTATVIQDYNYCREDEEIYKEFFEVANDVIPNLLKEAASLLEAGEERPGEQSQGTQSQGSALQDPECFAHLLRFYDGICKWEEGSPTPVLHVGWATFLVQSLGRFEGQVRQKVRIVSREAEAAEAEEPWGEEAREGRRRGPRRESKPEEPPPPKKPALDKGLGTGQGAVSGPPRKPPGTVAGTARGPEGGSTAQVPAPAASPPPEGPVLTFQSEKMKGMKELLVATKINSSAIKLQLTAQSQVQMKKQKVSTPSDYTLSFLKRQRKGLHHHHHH

The subject of experiment [1] is MV-4-11. As to the kind of experiment: Proliferation assay (spheroid assay) MV-4-11. The following applies: read-out: Spheroid assay MV-4-11 (IC50 (μM)), averaged values. On the procedure: (§1) The anti-proliferative effect of menin/MLL protein/protein interaction inhibitor test compounds was assessed in human leukemia cell lines. The cell lines MV-4-11 and MOLM14 harbor MLL translocations and express the MLL fusion proteins MLL-AF4 and MLL-AF9, respectively, as well as the wildtype protein from the second allele. […] K562 and KG1 were used as a control cell lines containing two MLL wildtype alleles in order to exclude compounds that display general cytotoxic effects.
(§2) MV-4-11 and MOLM14 were cultured in RPMI-1640 (Sigma Aldrich) supplemented with 10% fetal bovine serum (HyClone), 2 mM L-glutamine (Sigma Aldrich) and 50 μg/ml gentamycin (Gibco). K562 were propagated in RPMI-1640 (Sigma Aldrich) supplemented with 20% fetal bovine serum (HyClone), 2 mM L-glutamine (Sigma Aldrich) and 50 μg/ml gentamycin (Gibco). KG1 were cultured in Iscove's MDM (Gibco) supplemented with 20% fetal bovine serum (HyClone), 2 mM L-glutamine (Sigma Aldrich) and 50 μg/ml gentamycin (Gibco).
(§3) In order to assess the anti-proliferative effects, 1,500 MV-4-11, 300 MOLM14, 750 K562 or 1,300 KG1 cells were seeded in 200 μl media per well in 96-well round bottom, ultra-low attachment plates (Costar, catalogue number 7007). Cell seeding numbers were chosen based on growth curves to ensure linear growth throughout the experiment. Test compounds were added at different concentrations and the DMSO content was normalized to 0.3%. Cells were incubated for 8 d at 37° C. and 5% CO2. Spheroid like growth was monitored in real-time by live-cell imaging (IncuCyteZOOM, Essenbio, 4× objective) acquiring one image every four hours for 8 d. Confluence (%) as a measure of spheroid size was determined using an integrated analysis tool.
In order to determine the cumulative effect of the test compounds over time, the area under the curve (AUC) in a plot of confluence against time was calculated. Confluence at the beginning of the experiment (t=0) was used as baseline for the AUC calculation.
Absolute IC50 values were calculated according to the following procedure: % Control=(AUC sample/AUC control)*100 AUC control=mean AUC of control values (cells without compound/DMSO as vehicle control)
A non-linear curve fit was applied using the least squares (ordinary) fit method to the plot of % control versus compound concentration. Based on this, the absolute IC50 value (half maximal inhibitory concentration of the test compound causing an anti-proliferative effect of 50% relative to the vehicle control) was calculated.

In experiment [2] the target is menin (Homo sapiens, UniProt O00255, T541A). As to the kind of experiment: Menin/MLL fluorescence polarization (FP) assay. The following applies: read-out: Menin FP assay (IC50 (μM)); averaged values over all measurements. On the procedure:
1) Menin/MLL Fluorescence Polarization Assay
To a non-surface binding, black 384-well microtiter plate was added 50 nL 160× test compound in DMSO and 4 μL 2× menin in assay buffer (40 mM Tris·HCl, pH 7.5, 50 mM NaCl, 1 mM DTT and 0.001% Tween 20). After incubation of test compound and menin for 10 min at ambient temperature, 4 μL 2×FITC-MBM1 peptide (FITC-β-alanine-SARWRFPARPGT-NH2 (SEQ ID NO: 2)) in assay buffer was added, the microtiter plate centrifuged at 1000 rpm for 1 min and the assay mixtures incubated for 15 min at ambient temperature. The relative amount of menin·FITC-MBM1 complex present in an assay mixture is determined by measuring the fluorescence polarization (FP) of the FITC label with a BMG Pherastar plate reader (ex. 485 nm/em. 520 nm) at ambient temperature. The final concentrations of reagents in the binding assay are 100 nM menin, 5 nM FITC-MBM1 peptide and 0.625% DMSO in assay buffer. […]
Compound potencies were determined by first calculating % inhibition at each compound concentration according to equation 1: % inhibition=((HC−LC)−(FP^compound−LC))/(HC−LC))*100 (Eqn 1)
Where LC and HC are the FP values of the assay in the presence or absence of a saturating concentration of a compound that competes with FITC-MBM1 for binding to menin, and FP^compound is the measured FP value in the presence of the test compound. […]
Background: Fluorescence polarisation rises when a labelled molecule tumbles more slowly, as on binding a larger partner.

In experiment [3] the test system is MOLM14. Put plainly: Proliferation assay (spheroid assay) MOLM14. The following applies: read-out: Spheroid assay MOLM14 (IC50 (μM)), averaged values. On the procedure:
as §1, §2, §3
(§4) In order to determine the cumulative effect of the test compounds over time, the area under the curve (AUC) in a plot of confluence against time was calculated. […]
Absolute IC50 values were calculated according to the following procedure: % Control=(AUC sample/AUC control)*100 AUC control=mean AUC of control values (cells without compound/DMSO as vehicle control) […]

Experiment [4] deals with KG1. As to the kind of experiment: Proliferation assay (spheroid assay) KG1, control cell line. As to conditions: read-out: Spheroid assay KG1 (IC50 (μM)), averaged values. On the procedure: as §1
MV-4-11 and MOLM14 were cultured in RPMI-1640 (Sigma Aldrich) supplemented with 10% fetal bovine serum (HyClone), 2 mM L-glutamine (Sigma Aldrich) and 50 μg/ml gentamycin (Gibco). […]
In order to assess the anti-proliferative effects, 1,500 MV-4-11, 300 MOLM14, 750 K562 or 1,300 KG1 cells were seeded in 200 μl media per well in 96-well round bottom, ultra-low attachment plates (Costar, catalogue number 7007). […] Spheroid like growth was monitored in real-time by live-cell imaging (IncuCyteZOOM, Essenbio, 4× objective) acquiring one image every four hours for 8 d. Confluence (%) as a measure of spheroid size was determined using an integrated analysis tool.
as §4

On to `CC1(CN2CC3(CCN(c4ncnc5sc(CC(F)(F)F)cc45)C3)C2)COC1`, for which the IC50 (in general, the concentration at which inhibition is half-maximal) in experiment [1] was found to be 3.2 µM.
In the case of `CC(C)CN1CCC2(CCN(c3ncnc4sc(CC(F)(F)F)cc34)C2)C1` (single isomer, unassigned), the half-maximal inhibitory concentration (IC50) in experiment [1] came to 1.4 µM.
Take `N#CCCn1cc(CN2CC3(CCN(c4ncnc5sc(CC(F)(F)F)cc45)C3)C2)cn1`: the IC50 in experiment [2] came out at 0.68 µM.
On to `CC(C)C(C1CCOC1)N1CC2(CCN(c3ncnc4sc(CC(F)(F)F)cc34)C2)C1` (centres unmarked), for which the IC50 in experiment [1] was found to be 0.74 µM; in experiment [3] it was 1.6 µM.
`CC(C)C(Cc1ccc(F)cc1)N1CC2(CCN(c3ncnc4sc(CC(F)(F)F)cc34)C2)C1` (centres unmarked): the IC50 in experiment [4] turned out to be 10.7 µM; in experiment [1] it was 0.28 µM; in experiment [3], 1.5 µM.
For the compound `CC(C)CC(C1CNC1)N1CC2(CCN(c3ncnc4sc(CC(F)(F)F)cc34)C2)C1` (centres unmarked), the IC50 in experiment [4] was found to be 12.5 µM; in experiment [1], 0.68 µM; in experiment [3], 3.5 µM.
